Assay: Solubility of deferasirox in water from composition with sodium carbonate, dissolved with magnetic stirrer
Assay type: physicochemical
Settings: composition with 500 mg deferasirox and 80 mg sodium carbonate; magnetic stirrer for 3 minutes
Protocol: Table 1 below, without being limited to the compounds and their amounts mentioned, illustrates the pH values and solubility data of a pharmaceutical composition comprising 500 mg of deferasirox combined with various amounts of sodium carbonate in a suitable carrier when the said composition was dissolved using a magnetic stirrer for 3 minutes.

4-[3,5-bis(2-hydroxyphenyl)-[1,2,4]triazol-1-yl]benzoic acid [deferasirox]
Solubility of deferasirox in water: 650 µg/mL

— patent EP2987482A1, “Soluble and dispersible pharamaceutical deferasirox formulation” (Santa Farma Ilaç Sanayi A.S., priority 2014, dated 2016)
